Literature values as cited in publication PMC7037052, “Predicting the Blood-Brain Barrier Permeability of New Drug-Like Compounds via HPLC with Various Stationary Phases” (Molecules, 2020).

Design: method as in PMID 16331406
Conditions: rats; BB = Cbrain/Cplasma; training set; cited from earlier work

| Compound | log BBexp. |
| --- | --- |
| Cc1csc(N=C(N)N)n1 [Compound 7120-01-6] | −0.04 |
| O=C1CCCN1CCCCN1CCN(c2cc(C(F)(F)F)ccn2)CC1 [Compound 142494-12-0] | 0.16 |
